# According to BindingDB's records for doi:10.1021/cb700166z (Albert Einstein College of Medicine, 2007):
# Sequences of proteins named here, by UniProt entry; tags and fusion partners are left off. A change or cut given only in a name is not applied to a line headed by its entry.
# UniProt P0AF12: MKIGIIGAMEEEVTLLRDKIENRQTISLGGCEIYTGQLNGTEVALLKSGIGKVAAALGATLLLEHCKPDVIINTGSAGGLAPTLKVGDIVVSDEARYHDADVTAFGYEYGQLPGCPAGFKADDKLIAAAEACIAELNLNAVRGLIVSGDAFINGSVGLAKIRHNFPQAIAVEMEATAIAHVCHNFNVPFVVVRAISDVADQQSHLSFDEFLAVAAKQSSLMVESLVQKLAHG
# Target: 5'-methylthioadenosine/S-adenosylhomocysteine nucleosidase (Escherichia coli (strain K12), UniProt P0AF12)
# Assay: Enzyme Activity Assay
# Conditions: pH 7.5; 25 °C
# Excerpt: Enzyme activity assay using various bacterial species of 5'-Methylthioadenosine nucleosidases (MTANs) excepted for MTAP, for human MTAP.
compound,measurement,value
CSC[C@H]1CN(Cc2c[nH]c3c(N)ncnc23)C[C@@H]1O [DADMe-ImmA-Me],Kd,2 pM
